This experiment deals with T1, aldose reductase (Bos taurus, UniProt P16116).
T1 construct: preparation of the enzyme from bovine lens; from tissue; host or cells: bovine lens
In words: in vitro aldose reductase inhibition (modified Hayman and Kinoshita procedure). Particulars: for inhibition at 10 µM: 10^-5 M. The class given is biochemical, bovine (lens). The source says: In the present case the procedure of Hayman and Kinoshita was modified in that the final chromatography step was omitted in the preparation of the enzyme from bovine lens.

As usually defined, the inhibition is the share of the control response that was lost under treatment. For the setting “Table 2”, `N#Cc1c(OCC(=O)O)nc(-c2ccccc2)nc1-c1ccccc1` [Example 4 (Table 2)] showed an inhibition at 10 µM of 96%. In addition, where the note is “read-out: % Inhibition IN VITRO 10^-6 M”, the inhibition at 1 µM turned out to be 94%.

Where the note is “Table 1”, `CCCCCCSc1nc(C(C)(C)C)nc(OCC(=O)O)c1C#N` [Example 11 (Table 1)] returned an inhibition at 10 µM of 94%. Also, the inhibition at 0.1 µM (Table 1, 10^-7 M) was 91%.

The values above are taken from US4906753A, “Preparation of 2,6-disubstituted-5-cyano-4-pyrimidinyloxyacetic acid aldose reductase inhibitors” (American Home Products Corporation, priority 1988, dated 1990).
